Results on 3 compounds are retold here after US20200003760A1, “IN-VITRO METHODS FOR CLASSIFYING DRUGS ACCORDING TO THEIR POTENTIAL TO CAUSE LIVER CELL INJURY” (Board of Trustees of Michigan State University, priority 2018, published 2020).

Series [1] in a line: Logistic regression classification model: probability that a drug is associated with IDILI. Also on record: species or system human. The following applies: covariates Deltadiff, EC50 VEH, EC50 TNF, Delta VEH, Cmax, optimal cutoff 0.46.
Series [2] deals with HepG2 cells. Description: Drug/cytokine-induced cytotoxicity (% LDH release) concentration-response in HepG2 cells. (LDH leaks from cells whose membrane has failed.)

For `O=C(O)Cc1ccccc1Nc1c(Cl)cccc1Cl` [Diclofenac], the Estimated probability in series [1] is recorded as 0.8578.

`COc1ccc2cc([C@H](C)C(=O)O)ccc2c1` [Naproxen]: the “cytotoxic interaction of drug with TNF” value in series [2] (HepG2, 24 h, TNF 10 ng/ml) was “TNF significantly enhanced the cytotoxicity”. Moreover, in series [2] (HepG2, 24 h, absence of cytokines), the “cytotoxicity of drug on its own (LDH release)” value is “statistically significant increase in LDH release”. Besides, in series [2] (categorical, D10TNF − D10VEH), the TNF change was 0.

Consider `CC[C@H]1OC(=O)[C@H](C)C(=O)[C@H](C)[C@@H](O[C@@H]2O[C@H](C)C[C@H](N(C)C)[C@H]2O)[C@](C)(OC)C[C@@H](C)C(=O)[C@H](C)[C@H]2N(CCCCn3cnc(-c4cccnc4)c3)C(=O)O[C@]12C` [Telithromycin], for which the Estimated probability in series [1] is on record as 0.6685.
